Amino acid sequences for entries named in this document (tags omitted). A change or cut given only in a name is not applied to a line headed by its entry.
UniProt Q14416: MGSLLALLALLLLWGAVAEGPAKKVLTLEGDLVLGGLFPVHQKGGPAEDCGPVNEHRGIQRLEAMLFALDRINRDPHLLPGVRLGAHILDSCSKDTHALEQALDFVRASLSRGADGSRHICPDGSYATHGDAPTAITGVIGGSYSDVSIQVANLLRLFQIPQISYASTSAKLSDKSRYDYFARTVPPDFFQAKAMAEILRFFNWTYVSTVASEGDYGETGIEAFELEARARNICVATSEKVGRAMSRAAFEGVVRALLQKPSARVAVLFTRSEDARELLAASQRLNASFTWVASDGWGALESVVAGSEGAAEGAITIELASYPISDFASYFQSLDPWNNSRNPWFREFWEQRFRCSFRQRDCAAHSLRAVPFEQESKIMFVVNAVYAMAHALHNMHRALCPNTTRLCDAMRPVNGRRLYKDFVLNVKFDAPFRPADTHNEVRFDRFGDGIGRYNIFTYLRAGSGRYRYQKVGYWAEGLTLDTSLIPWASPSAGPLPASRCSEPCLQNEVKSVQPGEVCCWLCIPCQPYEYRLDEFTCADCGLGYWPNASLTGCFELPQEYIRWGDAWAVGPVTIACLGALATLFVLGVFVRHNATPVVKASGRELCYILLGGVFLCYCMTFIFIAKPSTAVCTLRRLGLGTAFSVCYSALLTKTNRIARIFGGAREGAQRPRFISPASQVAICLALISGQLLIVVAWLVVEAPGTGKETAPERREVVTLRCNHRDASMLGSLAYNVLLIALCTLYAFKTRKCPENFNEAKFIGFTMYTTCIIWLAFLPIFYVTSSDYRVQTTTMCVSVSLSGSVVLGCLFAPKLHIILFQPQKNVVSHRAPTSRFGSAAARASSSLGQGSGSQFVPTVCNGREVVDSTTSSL

In ChEMBL document CHEMBL4308859, “Discovery of Novel Central Nervous System Penetrant Metabotropic Glutamate Receptor Subtype 2 (mGlu2) Negative Allosteric Modulators (NAMs) Based on Functionalized Pyrazolo[1,5- a]pyrimidine-5-carboxamide and Thieno[3,2- b]pyridine-5-carboxamide Cores” (J Med Chem, 2018):

Target: Metabotropic glutamate receptor 2 (Homo sapiens, UniProt Q14416)
Experiment: Negative allosteric modulation of mGlu2R (unknown origin)

[11CH3]Oc1ccc(-c2cc(C(N)=O)nc3cc(CN4C(=O)CCC4=O)ccc23)c(F)c1
IC50: 45 nM
